According to US11202837B2, “Biological materials and uses thereof” (Antikor Biopharma Limited, priority 2014, dated 2021):

Legend:
[1] = test system: NCI-N87 cells; test: Cell killing assay (MTS), NCI-N87 cells; type: cell-based, human; settings: 96 hours
Method: The cells were recovered by centrifugation (2 min, 2000 rpm), the supernatant was discarded, and the cells were resuspended in complete McCoy's 5A (5 ml). The cells were then counted using a haemocytometer and diluted accordingly. They were plated at 5000 cells/well (200 μl) using attachment factor and incubated overnight at 37° C., 5% CO2 in a humidified atmosphere. U87 is a non-HER2 expressing glioblastoma cell line [Zitron I M et al (2013) BMC Cancer 13:83] and was grown in a similar way, plated at 1000 cells/well (using DMEM media). BT474 is a HER2 expressing breast cancer cell line [Brockhoff G et al (2007) Cell Prolif 40:488-507] and was grown in a similar way, plated at 7500 cells/well (using RPMI media). NCI-N87 is a HER2 expressing gastric cancer cell line [Yamashita-Kashima Y et al (2013) Oncol. Rep 30:1087-93] and was grown in a similar way, plated at 7500 cells/well (using RPMI media).
The cells were exposed to the various ADCs diluted in complete media for 96 hours at 37° C., 5% CO2 in a humidified atmosphere. Cell viability was measured using the Promega Aqueous Cell-titre-96™ aqueous one solution cell proliferation kit (MTS reagent) according to manufacturer's instructions. Briefly, the media was removed and 100 μl of complete phenol red free media, pre-combined with MTS reagent, was added to the cells (20 μl of reagent per 100 μl of media). The plates were read on an ELISA plate reader at 490 nm after a 2 hr incubation in the dark (5% CO2, 37° C.).
The data (absorption units) were converted to % cell survival by using the untreated controls as the 100% cell survival and the Triton X-100 controls as the 100% cell death. The average absorption value for the latter was subtracted from all the rest of the data in order to get a suitable baseline. The averages were converted to survival and standard error values were obtained for each n value (as a % cell survival). […] Experiments were repeated at least 3 times for each compound tested and a set or an average of the data was plotted and fitted to obtain a dose-response curve.

[2] = test system: BT474 human breast carcinoma xenografts; test: Tumour penetration in BT474 xenografts, immunohistochemistry 2 hrs post dose; type: in vivo, mouse; settings: 5 mg/kg single i.v. dose, SCID mice, BT474, payload detection (total ADC)
Method: Mice. […] The animals were fed ad libitum water (reverse osmosis, 1 ppm Cl), and NIH 31 Modified and Irradiated Lab Diet® consisting of 18.0% crude protein, 5.0% crude fat, and 5.0% crude fiber. The mice were housed on irradiated Enrich-o'cobs™ Laboratory Animal Bedding in static microisolators on a 12-hour light cycle at 20-22° C. (68-72° F.) and 40-60% humidity. Charles River Discovery Services North Carolina (CR Discovery Services, who carried out this contracted R&D) specifically complies with the recommendations of the Guide for Care and Use of Laboratory Animals with respect to restraint, husbandry, surgical procedures, feed and fluid regulation, and veterinary care. […]
In Vivo Implantation and Tumor Growth. […] On the day of tumor implant, each test mouse received a 1 mm^3 BT474 fragment implanted subcutaneously in the right flank, and tumor growth was monitored as the average size approached the target range of 400 to 600 mm^3. […] Tumors were measured in two dimensions using calipers, and volume was calculated using the formula: Tumor Volume (mm^3)=w^2×I/2
Therapeutic (test) Agents. All test agents were prepared as ready-to-dose dosing solutions at concentrations of 0.625 mg/mL. […]

[3] = test system: BT474 human breast carcinoma xenografts; test: Tumour growth inhibition or eradication in BT474 xenograft model; type: in vivo; settings: 5 mg/kg dosing regimen
Method: Mice. […] The animals were fed ad libitum water (reverse osmosis, 1 ppm Cl), and NIH 31 Modified and Irradiated Lab Diet® consisting of 18.0% crude protein, 5.0% crude fat, and 5.0% crude fiber. The mice were housed on irradiated Enrich-o'cobs™ Laboratory Animal Bedding in static microisolators on a 12-hour light cycle at 20-22° C. (68-72° F.) and 40-60% humidity. Charles River Discovery Services North Carolina (CR Discovery Services, who carried out this contracted R&D) specifically complies with the recommendations of the Guide for Care and Use of Laboratory Animals with respect to restraint, husbandry, surgical procedures, feed and fluid regulation, and veterinary care.
Tumor weight may be estimated with the assumption that 1 mg is equivalent to 1 mm^3 of tumor volume.

[4] = Plasma pharmacokinetics in BALB/c mice (ELISA, total antibody and total ADC); type: in vivo, mouse; settings: 1 × 5 mg/kg, mean AUC in anti-payload and anti-protein detection
Method: Mice. Female BALB/c mice (BALB/cAnNCrl, Charles River) were eight weeks old with body weights ranging from 15.9 to 21.9 grams at the beginning of the study. The animals were fed ad libitum water (reverse osmosis, 1 ppm Cl) and NIH 31 Modified and Irradiated Lab Diet® consisting of 18.0% crude protein, 5.0% crude fat, and 5.0% crude fiber. The mice were housed on irradiated Enrich-o'cobs™ Laboratory Animal Bedding in static microisolators on a 12-hour light cycle at 20-22° C. (68-72° F.) and at 40-60% humidity. Charles River Discovery Services North Carolina (CR Discovery Services, who carried out this contracted R&D) specifically complies with the recommendations of the Guide for Care and Use of Laboratory Animals with respect to restraint, husbandry, surgical procedures, feed and fluid regulation, and veterinary care. The Animal Care and Use program at CR Discovery Services is accredited by the Association for Assessment and Accreditation of Laboratory Animal Care International, which assures compliance with accepted standards for the care and use of laboratory animals.
Therapeutic (test) Agents. All test agents were supplied as ready-to-dose dosing solutions. All dosing solutions were stored at 4° C. until dosed. All treatments were administered in a dosing volume scaled to the body weights of the individual animals to obtain the dosing concentration described in the treatment tables.
Treatment (mice). On Day 1 of the study, mice were divided into groups each consisting of eighteen mice (per test agent being evaluated), and dosing was initiated according to the treatment plan summarized in the treatment tables. All doses were administered intravenously (i.v.) by tail vein injection as described in the tables below.
Endpoint. […]
Quantification of test agents in plasma. […]
(Concortis) and anti-cemadotin (in-house mouse monoclonal antibody, Example 33 that also recognised P5C5 and AuristatinF), total ADC. The reference test agents were used to construct a calibration curve for which the plasma samples were compared to, in order to quantify the amount present. […]

[5] = test system: U87 cells; test: Cell killing assay (MTS), U87 cells; type: cell-based; settings: U87 Cells (HER2−), 96 hours, Table 46
Method: SKBr3, human breast cancer cell line, high HER2 expression levels, up to 1,000,000 receptors per cell [Lazar G A, et al Proc Natl Acad Sci USA. […] When confluency was 70-80%, cells were washed with PBS (2×10 ml) and incubated with trypsin for 5-7 min. Complete media was added and the cells were resuspended by pipetting. The cells were recovered by centrifugation (2 min, 2000 rpm), the supernatant was discarded, and the cells were resuspended in complete DMEM (5 ml). The cells were then counted using a haemocytometer and diluted accordingly. They were plated at 4500 cells/well (200 μl) using attachment factor and incubated overnight at 37° C., 5% CO2 in a humidified atmosphere. […]
The cells were exposed to the various ADCs diluted in complete media for 96 hours at 37° C., 5% CO2 in a humidified atmosphere. Cell viability was measured using the Promega Aqueous Cell-titre-96™ aqueous one solution cell proliferation kit according to manufacturer's instructions. […] The plates were read on an ELISA plate reader at 490 nm after a 2 hr incubation in the dark (5% CO2, 37° C.). […]
The cells were recovered by centrifugation (2 min, 2000 rpm), the supernatant was discarded, and the cells were resuspended in complete McCoy's 5A (5 ml). The cells were then counted using a haemocytometer and diluted accordingly. […]

[6] = NCI-N87 Cells (HER2++), Table 51

For “Trastuzumab-MMAE-PAB-Cit-Val-dPEG9, DAR 4”, the “IC50 μg/ml” value [1, 6] was 0.067 µg/mL and the IC50 [1, 6] was 0.45 nM.

In the case of Trastuzumab-P5C5, the “localisation in tumour sections at 2 hrs post-dosing” value [2] is reported as “Very little”, the tumour growth delay [3] is reported as “marginal, insignificant growth delay” and the “Bioavailability (blood exposure, AUC, 24 hrs)” value (“Bioavailability” below) ([4]; Table 59) is reported as over 150 μghr/ml.

In the case of Trastuzumab-MMAF-C5, DAR 4, the “IC50” value [5] is reported as over 5 mg/L.

With Trastuzumab-Auristatin F-C5, DAR 4.8 the “IC50 μg/ml” value ([1]; NCI-N874 Cells (HER2++), Table 49) was 0.0018 µg/mL.

With Trastuzumab-MMAF-C5 the “Bioavailability” value ([4]; Table 55) was 1890 μghr/ml and the “Bioavailability” value ([4]; Table 57) was 1890 μghr/ml.
